Experimental data from patent EP0123485A1, “Colon-specific prodrug, the preparation and uses thereof” (priority 1983, dated 1984).
Read-outs that look alike come from different tables or passages of the source.

Test: physchem
Type: physicochemical

Compound | logD at 0.5 h (n-octanol / 0.01 M phosphate buffer pH 7.0, 37 C, agitated 30 min, read-out: Log P) | logD at 0.5 h (0.01 m phosphate buffer, pH 7, Log P)
CC1CC2C3CCC4=CC(=O)C=CC4(C)C3(F)C(O)CC2(C)C1(O)C(=O)COC1OC(CO)C(O)C(O)C1O [Compound 9, 9 alpha-Fluoro-11 beta, 17 alpha-dihydroxy-16 alpha-methyl-3, 20-dioxopregna-1,4-dien-21-yl beta-D-galactopyranoside] | 0.49 | –
CC1CC2C3CCC4=CC(=O)C=CC4(C)C3(F)C(O)CC2(C)C1(O)C(=O)COC1OC(CO)C(O)C(O)C1O [Compound 1, 9 alpha-Fluoro-11 beta, 17 alpha-dihydroxy-16 alpha-methyl-3, 20-dioxopregna-l, 4-dien-21-yl beta-D-glucopyranoside] | – | 0.59
